pIC50: −log10 of the molar value.
Tests used:
[1] = test system: intracellular GSH in HaCaT cells; assay: Screening of protective drugs against alkylating agent-induced GSH depletion (mBCL, high-content cell analysis); settings: for effect on GSH level in cells: 1 mM protective drug

| Molecule | cell viability (HaCaT cells; NEM at 10 μM) | pIC50 (HaCaT cells; read-out: IC50 (cytotoxicity), 24 h exposure, CCK-8) | effect on GSH level in cells ([1]; HD (120 μM), HaCaT cells) | concentration at which fluorescence intensity peaked (optimal concentration) ([1]; HaCaT cells, HD (120 μM), concentration optimisation) [µM] | fluorescence intensity in cells (intracellular GSH) after adding the protective drug ([1]; exposure to HD (120 μM), CECM (100 μM), Q (20 μM), HN2 (10 μM)) |
| --- | --- | --- | --- | --- | --- |
| CCN1C(=O)C=CC1=O | more than 95% | 4.40 |  |  |  |
| N[C@@H](CCC(=O)N[C@@H](CS)C(=O)NCC(=O)O)C(=O)O |  |  | effectively increase the GSH level in cells |  |  |
| N-acetylcysteine |  |  | effectively increase the GSH level in cells |  |  |
| glutathione monoethyl ester |  |  | effectively increase the GSH level in cells | 30 | significantly increased |
